# Screening results from PubChem.
# In the library only some 16% were active in any assay of this set; here they are far more common.
# TDP1 block: inhibitors of human tyrosyl-DNA phosphodiesterase TDP1 | hit rate 0.28% among 350,000 | Potency, µM (doses to about 130 µM), without a hit: top-dose activity change, negative = inhibition, usual class: inhibitors | recombinant TDP1, AlphaScreen DNA substrate cleavage; also: potency is read from the fitted curve at half-maximal effect; % is scaled to controls: 0 for no effect and ±100 for the full control effect; nearly all actives have a fitted effect of over 40% in size
#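 AlphaScreen read-out: signal falls as enzyme removes the 3' tyrosine-FITC from a 5'-biotinylated DNA oligo (15 nM, 5 min, RT). Enzyme was E. coli-made recombinant Tdp1 at 1 nM, exposed to compound for 15 min beforehand; beads 10 ug/ml, 10 min.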
# TDP1 cell noCPT: qHTS for Inhibitors of human tyrosyl-DNA phosphodiesterase 1 (TDP1): qHTS in cells in absence of CPT. hit rate 15% among 420,000. DT40 Tdp1-/- hTDP1 cells, no CPT, ATP luminescence, 48 h. Potency, µM (highest dose often 46.2 µM), without a hit: at the top dose activity change, negative = growth inhibition, actives largely listed as inhibitors; also: potency is read from the fitted curve at half-maximal effect; % is scaled to controls: 0 for no effect and ±100 for the full control effect; nearly all actives have a fitted effect of over 55% in size
#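 Stably hTDP1-transfected Tdp1-null chicken DT40 cells were treated with library compounds minus camptothecin and grown for at least 48 hr at 37 °C, after which cellular ATP was quantified by luminescence.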
# uPA generation: cell surface uPA generation inhibition. cell surface uPA generation assay, qHTS. Potency, µM (series often up to 38.3 µM), for the others: at the top dose activity change, negative = inhibition, actives largely listed as inhibitors. hit rate 0.31% among 330,000; active = well fitted inhibition curve with a large enough effect; inconclusive = small, poorly fitted or top-dose-only effect; inactive = no such curve, though single readings can be large or run the other way; tested in mouse RAW 264.7 cells; also: potency is read from the fitted curve at half-maximal effect; % is scaled to controls: 0 for no effect and ±100 for the full control effect; nearly all actives have a fitted effect of over 55% in size
# DT40 TDP1 CPT: growth inhibition of DT40 Tdp1-/-;hTDP1 cells with camptothecin (screen for TDP1 inhibitors); chicken DT40 Tdp1-/-;hTDP1 cells + 20 nM CPT, ATP luminescence, 48 h; hit rate 12% among 420,000; Potency, µM (highest dose often 46.2 µM), for inactives: at the highest dose activity change, negative = growth inhibition, actives largely listed as inhibitors; also: potency is read from the fitted curve at half-maximal effect; % is scaled to controls: 0 for no effect and ±100 for the full control effect; nearly all actives have a fitted effect of over 55% in size
#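 Chicken DT40 Tdp1-/- cells stably complemented with human TDP1 were seeded at 400 cells/well in medium containing 20 nM camptothecin, exposed to pin-transferred compounds, and grown at 37 °C for at least 48 hr. Viability was read as ATP luminescence.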
# miR-21 reporter: miR-21 reporter, rising signal | Potency, µM (highest dose often 38.3 µM), for inactives: at the highest dose reporter change, positive = more light | 340,000 tested, under 10 active | HeLa miR-21 FLuc reporter, luciferase, 48 h; active = well fitted rising curve with a large enough effect; inconclusive = small, poorly fitted or top-dose-only effect; inactive = no such curve, though single readings can be large or run the other way;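 note: % of control where 0% means no effect; miR-21 action dims this reporter so a rising signal means less miR-21 action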
#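 Luminescence from a firefly luciferase reporter carrying a miR-21 binding site downstream, stably expressed under a CMV promoter in HeLa cells that make miR-21 endogenously, reports miRNA modulation after 48 h compound exposure up to approximately 40uM final.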
# Numbers without * were called inactive; ? = inconclusive; / = not tested or not shown; [ ] = another dose, or the depositor's remark. Unless noted, calls follow the shape of the dose curve; as a rule, active = well fitted curve in the direction sought with a large enough effect; inconclusive = small, poorly fitted or top-dose-only effect, or another doubt; inactive = no such curve, though single readings can be large; an effect the other way counts as inactive or inconclusive.
# Letter code – A = TDP1 block; B = TDP1 cell noCPT; C = uPA generation; D = DT40 TDP1 CPT; E = miR-21 reporter
COc1ccc(C(=O)Nc2ccc(C(=O)OCC(=O)c3ccccc3)cc2)cc1
  A: 4%; B: -20%; C: -5%; D: -20%; E: -4%

COc1ccc(C(=O)OCC(=O)c2ccc(C3CCCCC3)cc2)cc1
  A: -3%; B: 20µM*; C: -1%; D: ?; E: -8%

Nc1ccc(O)cc1C(=O)OCC(=O)c1ccc(C2CCCCC2)cc1
  A: 11%; B: 21µM*; C: -8%; D: ?; E: 8%

O=C(COC(=O)c1ccc(O)cc1O)c1ccc(Cl)cc1
  A: -7%; B: -17%; C: 0%; D: -20%; E: /

CCn1c(CN2CCOCC2)nnc1SCC(=O)Nc1cccc(C)c1
  A: 2%; B: -1%; C: 5%; D: 1%; E: 1%

CCOc1ccccc1NC(=O)C(=O)NCCc1sc2nc(-c3ccc(OC)cc3)nn2c1C
  A: 3%; B: ?; C: /; D: ?; E: -43%

CCN(CC)S(=O)(=O)c1ccc2oc(Nc3ccc4c(c3)OCCO4)nc2c1
  A: 5%; B: 23µM*; C: -12%; D: 16µM*; E: -28%

CCS(=O)(=O)c1ccc2oc(Nc3ccc(C(C)(C)C)cc3)nc2c1
  A: 0%; B: 15µM*; C: -6%; D: 16µM*; E: -5%

Cc1ccc(N(CC(=O)N2CCN(c3ccc(F)cc3)CC2)S(=O)(=O)c2c(C)nn(C)c2C)cc1
  A: 2%; B: ?; C: 9%; D: ?; E: -3%

O=C(COC(=O)c1cccc(Cl)c1)Nc1cc(S(=O)(=O)N2CCOCC2)ccc1N1CCOCC1
  A: /; B: -17%; C: -2%; D: -22%; E: /

# Exported as tab-separated lines: entries from further up.
Structure	TDP1 block	TDP1 cell noCPT	uPA generation	DT40 TDP1 CPT	miR-21 reporter
CCn1c(CN2CCOCC2)nnc1SCC(=O)Nc1cccc(C)c1	2%	-1%	5%	1%	1%
CCOc1ccccc1NC(=O)C(=O)NCCc1sc2nc(-c3ccc(OC)cc3)nn2c1C	3%	?	/	?	-43%
CCN(CC)S(=O)(=O)c1ccc2oc(Nc3ccc4c(c3)OCCO4)nc2c1	5%	23µM*	-12%	16µM*	-28%
CCS(=O)(=O)c1ccc2oc(Nc3ccc(C(C)(C)C)cc3)nc2c1	0%	15µM*	-6%	16µM*	-5%

# (next part)
# Letter code – A = TDP1 block; B = TDP1 cell noCPT; C = uPA generation; D = DT40 TDP1 CPT; E = miR-21 reporter
O=C(OCCN1C(=O)c2cccc3c(N4CCOCC4)ccc(c23)C1=O)c1cccc(Cl)c1
  A: 3%; B: 8.2µM*; C: -17%; D: 18µM*; E: 0%

O=C(OCCN1C(=O)c2ccccc2C1=O)c1cc(S(=O)(=O)N2CCOCC2)ccc1Cl
  A: 7%; B: 3%; C: -3%; D: 9%; E: -2%

O=C(OCCN1C(=O)c2cccc3c(N4CCOCC4)ccc(c23)C1=O)c1ccc(Cl)cc1Cl
  A: /; B: 4.1µM*; C: -18%; D: 3.7µM*; E: 3%

CN1CCc2c(sc3c2C(=O)NC(c2ccco2)N3)C1 (configuration not stated)
  A: 6%; B: -2%; C: /; D: -16%; E: -9%

CN1CCc2c(sc3c2C(=O)NC(c2cn(Cc4ccccc4)c4ccccc24)N3)C1 (configuration not stated)
  A: 6%; B: 23µM*; C: 8%; D: 21µM*; E: 3%

O=C1NC(c2ccco2)Nc2sc3c(c21)CCN(Cc1ccccc1)C3 (configuration not stated)
  A: -1%; B: 16µM*; C: -7%; D: 23µM*; E: -4%

Cc1ccc(-n2nc3c(c2NC(=O)c2ccco2)CS(=O)(=O)C3)cc1C
  A: 5%; B: -3%; C: -21%; D: -6%; E: -1%

Cc1noc(NS(=O)(=O)c2ccc(NC(=O)c3ccc(N(C)C)cc3)cc2)c1C
  A: 0%[56.1 µM]; B: -7%; C: -28%; D: 11%; E: /

O=S(=O)(NCc1ccccc1)c1ccc(Cl)cc1
  A: 0%; B: -7%; C: 1%; D: -7%; E: -4%

O=S(=O)(Nc1cc2nc3ccccc3nc2n1Cc1ccccc1)c1ccc(Cl)cc1
  A: -3%; B: 23µM*; C: -2%; D: ?; E: ?

# Additional structures:
# Letter code – A = TDP1 block; B = TDP1 cell noCPT; C = uPA generation; D = DT40 TDP1 CPT; E = miR-21 reporter
Cc1ccc2c(c1)C(=O)C(=O)N2Cc1ccc(Br)cc1
  A: 7%; B: 0.65µM*; C: 4.5µM*; D: 0.92µM*; E: /

O=C1CNC(=O)N1Cc1ccc(Br)cc1
  A: 9%; B: -4%; C: 1%; D: -4%; E: -3%

CCCCN1C(=O)c2ccccc2C1=O
  A: 1%; B: /; C: /; D: /; E: /

Cc1ccc2c(c1)C(=O)C(=O)N2Cc1ccc(OCCC(C)C)cc1
  A: -3%; B: 0.41µM*; C: /; D: 0.41µM*; E: 16%

Cc1ccc2c(c1)C(=O)C(=O)N2c1ccc(C(F)(F)F)cc1
  A: 1%; B: -22%; C: 5%; D: -13%; E: /

CCCCN1C(=O)C(=O)c2cc(Cl)ccc21
  A: 5%; B: 0.82µM*; C: ?; D: 1µM*; E: /

CCCN1C(=O)C(=O)c2cc(C)ccc21
  A: 0%; B: 3.3µM*; C: 3.2µM*; D: 2.1µM*; E: /

Cc1ccc(/C=N/NC(=O)c2ccc(NC(=O)c3ccccc3Cl)cc2)o1
  A: 10%; B: -15%; C: 2%; D: 7%; E: 1%

Cc1cccc(NC(=O)CN(C)S(=O)(=O)c2cnc[nH]2)c1C
  A: -3%; B: 13%; C: /; D: 4%; E: -2%

CCCCN(CCCC)c1nn[nH]n1
  A: /; B: 0%; C: 5%; D: ?; E: /

# Remaining list, next part.
# Letter code – A = TDP1 block; B = TDP1 cell noCPT; C = uPA generation; D = DT40 TDP1 CPT; E = miR-21 reporter
Cc1ccc2c(c1)C(=O)C(=O)N2c1ccc(Cl)cc1
  A: 1%; B: ?; C: 9%; D: ?; E: /

Cc1ccc(CN2C(=O)C(=O)c3cc(C)ccc32)cc1
  A: 6%; B: 0.65µM*; C: ?; D: 0.58µM*; E: /

COc1ccccc1C1CCN(c2ccc(CO)cc2[N+](=O)[O-])CC1
  A: 6%; B: 16µM*; C: 1%; D: ?; E: -15%

OCC[C@@H]1NCc2cc(CO)cc(-c3ccccc3)c21
  A: /; B: 18µM*; C: 23%; D: 21µM*; E: /

Cc1ccc(-c2nc3ncccn3c2Nc2ccc3c(c2)OCO3)o1
  A: 5%; B: -29%; C: 3%; D: ?; E: -23%

Cc1ccc2nc(-c3ccc(C)o3)c(Nc3ccc(Cl)cc3)n2c1
  A: 2%; B: ?; C: /; D: ?; E: /

Cc1ccn2c(Nc3ccc4c(c3)OCCO4)c(-c3ccc(C)o3)nc2c1
  A: 13%; B: ?; C: /; D: 21µM*; E: -41%

Cc1ccn2c(Nc3ccc(F)cc3)c(-c3ccc(C)o3)nc2c1
  A: 3%; B: ?; C: /; D: 16µM*; E: -25%

Cc1ccn2c(Nc3ccc4c(c3)OCO4)c(-c3ccc(O)cc3)nc2c1
  A: 12%; B: ?; C: 1%; D: 23µM*; E: -15%

CN1CCN(S(=O)(=O)c2cccc(C(=O)Oc3ccc(Br)cc3F)c2)CC1
  A: 2%; B: 17%; C: -7%; D: 12%; E: -3%

# Next section:
# Letter code – A = TDP1 block; B = TDP1 cell noCPT; C = uPA generation; D = DT40 TDP1 CPT; E = miR-21 reporter
Cc1ccc(C(=O)N2CCN3C(=O)c4ccccc4C23c2ccc(Cl)cc2)cc1 (configuration not stated)
  A: 4%; B: 10µM*; C: -11%; D: 8.2µM*; E: -2%

O=C(Nc1cccc(Cl)c1)N1CCN2C(=O)c3ccccc3C12c1ccccc1 (configuration not stated)
  A: 6%; B: 18µM*; C: 6%; D: ?; E: ?

O=C(CN1C(=O)c2ccccc2C1=O)Nc1cccc(Cl)c1
  A: /; B: -8%; C: 4%; D: -17%; E: 3%

Cc1cc(C)cc(CC(=O)N2CCC2(C)C(=O)NS(=O)(=O)c2ccc(C#N)cc2)c1 (configuration not stated)
  A: /; B: -2%; C: /; D: -5%; E: /

O=C(O)CNC(=O)CC1S/C(=N/N=C/c2ccccc2O)NC1=O (configuration not stated)
  A: 10%; B: 16µM*; C: 11%; D: 21µM*; E: -9%

CCN1CCN(C(=O)CSCc2nc(-c3ccc(OC)c(OC)c3)oc2C)CC1
  A: -2%; B: -1%; C: -3%; D: 13%; E: -18%

CCOc1ccc(-c2nc(CSCC(=O)N3CCN(c4ccc(F)cc4)CC3)c(C)o2)cc1
  A: 3%; B: -22%; C: /; D: -18%; E: ?

COc1ccc(-c2nc(CSCC(=O)N3CCN(c4cccc(C)c4C)CC3)c(C)o2)cc1OC
  A: 5%; B: 23µM*; C: /; D: 18µM*; E: 29%
